pIC50: −log10 of the molar value.
biological target: human recombinant Btk (Homo sapiens, UniProt Q06187); assay: Btk Enzymatic Activity Assay (Caliper-based kinase assay); type: biochemical; settings: human recombinant Btk 2 nM, ATP 40 uM, peptide substrate 1 uM, room temperature, 3 h

The chains behind the UniProt entries cited, without tags or fusion partners. Where a name states a change or a piece, a line headed by the entry shows the natural chain unless it says otherwise.
UniProt Q06187: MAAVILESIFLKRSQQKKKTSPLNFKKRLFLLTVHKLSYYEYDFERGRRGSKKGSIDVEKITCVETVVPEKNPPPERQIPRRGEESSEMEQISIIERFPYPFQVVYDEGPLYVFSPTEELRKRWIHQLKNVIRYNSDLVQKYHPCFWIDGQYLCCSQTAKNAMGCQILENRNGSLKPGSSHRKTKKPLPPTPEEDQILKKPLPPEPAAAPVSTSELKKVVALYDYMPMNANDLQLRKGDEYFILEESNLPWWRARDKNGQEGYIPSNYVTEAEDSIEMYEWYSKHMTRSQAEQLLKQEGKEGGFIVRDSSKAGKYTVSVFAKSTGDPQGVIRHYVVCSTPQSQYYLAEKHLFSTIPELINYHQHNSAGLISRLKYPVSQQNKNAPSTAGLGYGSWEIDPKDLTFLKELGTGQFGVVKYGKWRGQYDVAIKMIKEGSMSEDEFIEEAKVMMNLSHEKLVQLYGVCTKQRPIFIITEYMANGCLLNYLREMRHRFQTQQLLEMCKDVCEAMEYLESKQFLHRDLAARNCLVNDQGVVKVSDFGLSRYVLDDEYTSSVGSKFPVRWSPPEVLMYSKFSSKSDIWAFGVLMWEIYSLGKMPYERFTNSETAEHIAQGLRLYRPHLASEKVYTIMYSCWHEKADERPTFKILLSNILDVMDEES

Point of comparison: CC(C)(N)C=C(C#N)C(=O)N1CCC[C@@H]1Cn1nc(-c2ccc(Oc3cccc(F)c3F)cc2F)c2c(N)ncnc21 [Cpd 104A, (R)-4-amino-2-(2-((4-amino-3-(4-(2,3-difluorophenoxy)-2-fluorophenyl)-1H-pyrazolo[3,4-d]pyrimidin-1-yl)methyl)pyrrolidine-1-carbonyl)-4-methylpent-2-enenitrile], pIC50 9.00. Against it:
- CC(C)C=C(C#N)C(=O)N[C@@H](C)Cn1nc(-c2ccc(Oc3ccccc3)cc2F)c2c(N)ncnc21 [Cpd 183B, (S)-N-(1-(4-amino-3-(2-fluoro-4-phenoxyphenyl)-1H-pyrazolo[3,4-d]pyrimidin-1H-yl)propan-2-yl)-2-cyano-4-methylpent-2-enamide] — 0.48 log units lower, 8.52
- N#CC(=C[C@@H]1CCCN1)C(=O)N1CCC[C@@H]1Cn1nc(-c2ccc(Oc3ccccc3)cc2F)c2c(N)ncnc21 [Cpd 186, 2-((R)-2-((4-amino-3-(2-fluoro-4-phenoxyphenyl)-1H-pyrazolo[3,4-d]pyrimidin-1-yl)methyl)pyrrolidine-1-carbonyl)-3-((S)-pyrrolidin-2-yl)acrylonitrile] — 0.57 log units lower, 8.43

Source: patent US20160045503A1, “FORMULATIONS CONTAINING REVERSIBLE COVALENT COMPOUNDS” (PRINCIPIA BIOPHARMA INC., priority 2012, published 2016)
